From ChEMBL document CHEMBL5375956, “Discovery of Pyrazolo[1,5-a]pyrimidine Derivative as a Novel and Selective ALKBH5 Inhibitor for the Treatment of AML” (J Med Chem, 2023) come the findings set out here.

By UniProt entry, the sequences of proteins in these tests, tags left out. Where a name states a change or a piece, a line headed by the entry shows the natural chain unless it says otherwise.
UniProt Q6P6C2: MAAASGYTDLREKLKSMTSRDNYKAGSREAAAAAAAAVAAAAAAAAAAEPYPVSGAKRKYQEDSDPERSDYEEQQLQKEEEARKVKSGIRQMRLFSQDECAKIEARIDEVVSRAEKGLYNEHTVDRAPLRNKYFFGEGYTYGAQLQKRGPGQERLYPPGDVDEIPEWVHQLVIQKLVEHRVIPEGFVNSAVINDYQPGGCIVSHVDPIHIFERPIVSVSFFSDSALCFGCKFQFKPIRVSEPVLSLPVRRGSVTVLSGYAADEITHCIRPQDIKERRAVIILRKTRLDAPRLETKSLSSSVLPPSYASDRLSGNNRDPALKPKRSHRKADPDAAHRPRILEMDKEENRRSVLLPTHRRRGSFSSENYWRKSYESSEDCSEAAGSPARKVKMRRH

For assay [1], the target named is T1, RNA demethylase ALKBH5 (Homo sapiens, UniProt Q6P6C2). As to the kind of experiment: Binding affinity to biotinylated ALKBH5 (66 to 292 residues)(unknown origin) expressed in Escherichia coli BL21(DE3) assessed as dissociation constant (Kdis) by BLI assay.
For assay [2], the target named is T1, RNA demethylase ALKBH5. As to the kind of experiment: Binding affinity to biotinylated ALKBH5 (66 to 292 residues)(unknown origin) expressed in Escherichia coli BL21(DE3) assessed as association constant (Kon) by BLI assay.

Each structure is given as a SMILES string.

As for `O=C(OCc1ccc(C(F)(F)F)cc1)c1ccc(-c2cc3ncc(C(=O)c4c(O)ccc([N+](=O)[O-])c4O)cn3n2)cc1`, the K in assay [1] was 1.25 10^-2/s; in assay [2] it was 1.88 10^3/Ms.
